According to US20250000863A1, “COMBINATION THERAPIES OF KRAS G12D INHIBITORS WITH SOS1 INHIBITORS” (MIRATI THERAPEUTICS, INC., priority 2021, published 2025):

Tested on: Panc 02.03 cells harboring a KRas G12D mutation
Assay: Panc0203 TGI-43 xenograft tumor volume study
Format: in vivo, nude/nude mice
Conditions: BI-3406 50 mg/kg BID daily, alone or combined; for Average Tumor Volumes: MRTX1133 30 mg/kg BID 2x/week, i.p., 5 mice per group
Text: Experimental Procedures. […] When the tumors reached ˜300 mm^3 four treatment groups were established with five mice per group.

COc1cc2nc(C)nc(N[C@H](C)c3cc(N)cc(C(F)(F)F)c3)c2cc1O[C@H]1CCOC1 [BI-3406]
tumor growth inhibition (Day 22, MRTX1133 30 mg/kg BID twice per week): 28% | Average Tumor Volumes (Study Day 1): 331.672 mm^3 | Average Tumor Volumes (Study Day 4): 349.632 mm^3 | Average Tumor Volumes (Study Day 8): 400.406 mm^3 | Average Tumor Volumes (Study Day 11): 481.264 mm^3 | Average Tumor Volumes (Study Day 15): 547.852 mm^3 | Average Tumor Volumes (Study Day 18): 730.884 mm^3 | Average Tumor Volumes (Study Day 22): 892.786 mm^3
